# Source: PubChem BioAssay AID720711 (National Center for Advancing Translational Sciences (NCATS), 2013)
# Sequences of proteins named here, by UniProt entry; tags and fusion partners are left off.
# UniProt Q8WZA2, whole entry: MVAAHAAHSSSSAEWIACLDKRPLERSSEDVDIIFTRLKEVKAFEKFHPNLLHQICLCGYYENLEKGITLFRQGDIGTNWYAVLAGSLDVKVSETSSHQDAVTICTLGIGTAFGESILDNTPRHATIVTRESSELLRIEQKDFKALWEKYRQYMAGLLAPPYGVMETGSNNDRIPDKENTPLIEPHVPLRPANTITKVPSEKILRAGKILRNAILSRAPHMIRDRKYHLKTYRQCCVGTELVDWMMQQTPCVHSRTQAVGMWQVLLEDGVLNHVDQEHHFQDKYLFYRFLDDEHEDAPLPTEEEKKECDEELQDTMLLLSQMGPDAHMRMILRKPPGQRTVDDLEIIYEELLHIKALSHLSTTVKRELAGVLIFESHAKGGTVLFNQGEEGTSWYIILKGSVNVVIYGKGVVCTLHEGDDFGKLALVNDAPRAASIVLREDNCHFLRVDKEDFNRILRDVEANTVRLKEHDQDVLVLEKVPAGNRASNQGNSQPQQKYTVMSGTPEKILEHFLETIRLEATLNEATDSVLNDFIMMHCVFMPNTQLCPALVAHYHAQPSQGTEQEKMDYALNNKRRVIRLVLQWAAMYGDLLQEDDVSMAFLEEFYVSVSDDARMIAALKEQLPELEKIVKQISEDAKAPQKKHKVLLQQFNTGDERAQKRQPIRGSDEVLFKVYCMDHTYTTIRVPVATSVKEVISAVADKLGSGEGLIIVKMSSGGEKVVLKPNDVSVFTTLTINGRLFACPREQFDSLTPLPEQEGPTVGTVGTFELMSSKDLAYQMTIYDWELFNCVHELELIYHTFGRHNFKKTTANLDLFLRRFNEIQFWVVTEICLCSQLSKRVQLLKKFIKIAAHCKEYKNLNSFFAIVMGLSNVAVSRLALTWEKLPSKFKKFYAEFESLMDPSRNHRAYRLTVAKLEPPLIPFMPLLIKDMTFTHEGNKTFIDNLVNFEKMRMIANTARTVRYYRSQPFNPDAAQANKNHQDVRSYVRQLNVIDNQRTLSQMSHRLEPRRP
# The list shows a part of the results, in another mix than the full data. Calls of active or inactive are those of the source. Calls follow the shape of the dose curve; as a rule, active = well fitted activation curve with a large enough effect; inconclusive = small, poorly fitted or top-dose-only effect; inactive = no such curve, though single readings can be large or run the other way.
# Biological target: Rap guanine nucleotide exchange factor 4 (Homo sapiens) (UniProt Q8WZA2)
# Test: qHTS for Agonist of cAMP-regulated guanine nucleotide exchange factor 4 (EPAC2): primary screen; also: nearly all actives have a fitted effect of over 50% in size
# Settings: biochemical qHTS, 100% = 6.5 mM cAMP response; at 154 µM (top of the series)
# Outline: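 Each well held 100 nM EPAC2, 250 nM RAP1B-BODIPY-GDP and 50 uM GDP. Fluorescence, read at 5-min intervals to 30 min, was referenced to a 6.5 mM cAMP positive control.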
row,SMILES,activation
1,COc1cccc(C(c2nnnn2C2CCCCC2)N2CCC(n3c(=O)[nH]c4ccccc43)CC2)c1OC (stereo unspecified),inactive: 4.89%
2,CC(=O)N(c1ccccc1)C1CCNCC1,inactive: 4.43%
3,O=c1[nH]c2ccccc2n1C1CCN(C(c2ccnc3ccccc23)c2nnnn2C2CCCCC2)CC1 (stereo unspecified),inactive: 2.81%
4,CC(C)(C)n1nnnc1C(c1cccc2ccccc12)N1CCC(n2c(=O)[nH]c3ccccc32)CC1 (stereo unspecified),inactive: 11.3%
5,CN(C)C1(CNC(=O)c2cccc(C#N)c2)CCCCC1,inactive: -6.81%
6,CCCN1CCC(Nc2cc(OC)cc(OC)c2)CC1,inactive: 1.58%
7,O=c1[nH]c2ccccc2n1C1CCN(C(c2ccccc2)c2nnnn2C2CCCC2)CC1 (stereo unspecified),inactive: 12.7%
8,Cc1cc(N(CCCl)CCCl)ccc1C=O,inactive: 2.49%
9,c1ccc(CN2CCC(Nc3ccccc3)CC2)cc1,inactive: -0.693%
10,CCOC(=O)C(CC)C1=NC(C)(C)Cc2ccccc21.O=[N+]([O-])c1cc([N+](=O)[O-])c(O)c([N+](=O)[O-])c1 (stereo unspecified),inactive: 5.16%
11,N#Cc1ccc(C(=O)NCC2(N3CCCCC3)CCCCC2)cc1,inactive: 7.06%
12,CC(C)(C)OC(=O)N1CCC(N(C(=O)c2ccccc2)c2ccc(Cl)cc2)CC1,inactive: 6.17%
13,O=C(O)c1cccc(Nc2c([N+](=O)[O-])cc([N+](=O)[O-])cc2[N+](=O)[O-])c1,inactive: -2.91%
14,O=c1[nH]c2ccccc2n1C1CCN(C(c2cccs2)c2nnnn2C2CCCC2)CC1 (stereo unspecified),inactive: 7.29%
15,CCc1cc(C(=O)NCC2(N3CCCCC3)CCCCC2)sc1C,inactive: -12.5%
16,O=C(OC1CN2CCC1CC2)C1c2ccccc2C=Cc2ccccc21 (stereo unspecified),inactive: 6.31%
17,CCCCn1nnnc1C(c1cccc(OC)c1OC)N1CCC(n2c(=O)[nH]c3ccccc32)CC1 (stereo unspecified),inactive: 16%
18,CCOC(=O)N1CCC(Nc2ccc(C)cc2)CC1,inactive: 2.2%
19,COc1cccc(C(c2nnnn2C(C)(C)C)N2CCC(n3c(=O)[nH]c4ccccc43)CC2)c1OC (stereo unspecified),inactive: 2.48%
20,N/C(=N\O)c1c(N)no[n+]1[O-],inactive: -0.0719%
21,O=c1[nH]c2ccccc2n1C1CCN(C(c2cccs2)c2nnnn2C2CCCCC2)CC1 (stereo unspecified),inactive: 9.27%
22,O=c1[nH]c2ccccc2n1C1CCN(C(c2ccnc3ccccc23)c2nnnn2C2CCCC2)CC1 (stereo unspecified),inactive: 15.7%
23,COc1ccc(C(=O)NCC2(N3CCOCC3)CCCCC2)cc1OC,inactive: 3.54%
24,COc1cc(C(=O)NCC2(N3CCOCC3)CCCCC2)cc(OC)c1C,inactive: -3.96%
25,CCCCn1nnnc1C(c1ccccc1)N1CCC(n2c(=O)[nH]c3ccccc32)CC1 (stereo unspecified),inactive: 7.93%
26,O=C(NCC1(N2CCOCC2)CCCCC1)c1cc(Br)ccc1Cl,inactive: -1.24%
